Test system: NO (nitric oxide)
Test: NO (nitric oxide) inhibitory activity in LPS-treated BV-2 microglial cells
Type: cell-based
Settings: Mus musculus, BV-2, 24 h; for activity at 10 µM: read-out: Amount of NO (% of control) 10 µM

Structure (SMILES)	activity at 0.1 µM (read-out: Amount of NO (% of control) 0.1 µM) [%]	activity at 1 µM (read-out: Amount of NO (% of control) 1 µM) [%]	activity at 10 µM [%]
N=S(=O)(/C=C/c1ncccc1Cl)c1ccccc1F (stereo not drawn) [Compound 1-6, (E)-(2-(3-chloropyridin-2-yl)vinyl)(2-fluorophenyl)(imino)-λ^6-sulfanone]	82.9	43.7	< 3
COc1cccc(S(=N)(=O)/C=C/c2ncccc2Cl)c1 (stereo not drawn) [Compound 1-9, (E)-(2-(3-chloropyridin-2-yl)vinyl)(imino)(3-methoxyphenyl)-λ^6-sulfanone]			< 3
N=S(=O)(/C=C/c1ccccc1Cl)c1ccccn1 (stereo not drawn) [Compound 1-15, (E)-(2-chlorostyryl)(imino)(pyridin-2-yl)-λ^6-sulfanone]			< 3
N=S(=O)(/C=C/c1c(Cl)cccc1Cl)c1ccccn1 (stereo not drawn) [Compound 1-19, (E)-(2,6-dichlorostyryl)(imino)(pyridin-2-yl)-λ^6-sulfanone]			< 3

Reference: patent publication EP4534528A1, “NOVEL SULFANONE DERIVATIVE OR PHARMACEUTICALLY ACCEPTABLE SALT THEREOF, AND USE THEREOF” (Korea Institute of Science and Technology, priority 2022, dated 2023)
